Measurements: ChEMBL document CHEMBL3879899, “Gastrin releasing peptide compounds” (2011)

Protein sequences, listed by entry. Tags and fused reporters are not part of them. Lines headed by an entry give the natural chain unless they say otherwise; changes in a name come on top.
UniProt P30550: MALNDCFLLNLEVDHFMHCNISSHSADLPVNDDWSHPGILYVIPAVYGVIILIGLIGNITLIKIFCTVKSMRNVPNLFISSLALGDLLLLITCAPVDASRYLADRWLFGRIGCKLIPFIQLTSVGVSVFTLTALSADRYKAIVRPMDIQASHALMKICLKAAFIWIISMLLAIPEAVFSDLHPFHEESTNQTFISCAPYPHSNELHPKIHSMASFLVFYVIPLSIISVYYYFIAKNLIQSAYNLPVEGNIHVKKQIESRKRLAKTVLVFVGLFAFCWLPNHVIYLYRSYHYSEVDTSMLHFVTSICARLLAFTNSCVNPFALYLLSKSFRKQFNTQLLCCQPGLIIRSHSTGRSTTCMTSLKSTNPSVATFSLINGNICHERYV

Experiments:
[1] = molecular target: Gastrin-releasing peptide receptor (Homo sapiens, UniProt P30550); assay: Displacement of [125I]-BBN from GRPR in human PC3 cells after 1 hr by compuGamma counting or microplate scintillation counting method; type: cell-based, PC-3
[2] = molecular target: T1, Neuromedin-B receptor (Rattus norvegicus, UniProt P24053); assay: Displacement of [125I]-NMB from NMB receptor in rat C6 cells; type: cell-based
T1 sequence (P24053 whole entry): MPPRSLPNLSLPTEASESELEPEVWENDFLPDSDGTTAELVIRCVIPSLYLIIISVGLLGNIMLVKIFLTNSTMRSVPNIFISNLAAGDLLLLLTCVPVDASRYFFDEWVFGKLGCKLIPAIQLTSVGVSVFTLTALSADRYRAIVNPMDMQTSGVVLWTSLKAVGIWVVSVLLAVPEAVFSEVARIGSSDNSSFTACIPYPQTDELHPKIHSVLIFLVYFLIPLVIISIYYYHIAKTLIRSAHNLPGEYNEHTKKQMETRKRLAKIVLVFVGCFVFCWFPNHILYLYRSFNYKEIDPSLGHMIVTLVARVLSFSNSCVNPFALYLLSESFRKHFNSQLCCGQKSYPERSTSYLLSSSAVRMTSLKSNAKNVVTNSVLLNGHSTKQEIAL

For `CCCC[C@H](NC(=O)[C@H](Cc1ccccc1)NC(=O)[C@H](Cc1c[nH]cn1)NC(=O)CCNC(=O)[C@@H](NC(=O)[C@H](C)NC(=O)[C@H](Cc1c[nH]c2ccccc12)NC(=O)[C@H](CCC(N)=O)NC(=O)[C@@H](Cc1ccc(O)cc1)NC(=O)c1ccc(NC(=O)CNC(=O)CN2CCN(CC(=O)O)CCN(CC(=O)O)CCN(CC(=O)O)CC2)cc1)C(C)C)C(N)=O`, the IC50 ([1]; pc-3) was 46 nM.

`CSCC[C@H](NC(=O)[C@H](CC(C)C)NC(=O)[C@H](Cc1cnc[nH]1)NC(=O)CNC(=O)[C@@H](NC(=O)[C@H](C)NC(=O)[C@H](Cc1c[nH]c2ccccc12)NC(=O)[C@H](CCC(N)=O)NC(=O)CNC(=O)[C@H](CO)NC(=O)COCCOCCNC(=O)CNC(=O)[C@H](CSCNC(C)=O)NC(=O)[C@H](CO)NC(=O)CN(C)C)C(C)C)C(N)=O` was tested, and the IC50 [1] was 4 to 46 nM.

`CSCC[C@H](NC(=O)[C@H](CC(C)C)NC(=O)[C@H](Cc1cnc[nH]1)NC(=O)CNC(=O)[C@@H](NC(=O)[C@H](C)NC(=O)[C@H](Cc1c[nH]c2ccccc12)NC(=O)[C@H](CCC(N)=O)NC(=O)[C@H](CO)NC(=O)CN1CCN(CCNC(=O)CNC(=O)[C@H](CSCNC(C)=O)NC(=O)[C@H](CO)NC(=O)CN(C)C)CC1)C(C)C)C(N)=O` showed an IC50 [2] of 13 nM and an IC50 [1] of 25 nM.

`CSCC[C@H](NC(=O)[C@H](CC(C)C)NC(=O)[C@H](Cc1cnc[nH]1)NC(=O)CNC(=O)[C@@H](NC(=O)[C@H](C)NC(=O)[C@H](Cc1c[nH]c2ccccc12)NC(=O)[C@H](CCC(N)=O)NC(=O)[C@H](CO)NC(=O)COCCOCCNC(=O)CNC(=O)[C@H](CSCNC(C)=O)NC(=O)[C@H](CO)NC(=O)CN(C)C)C(C)C)C(N)=O` was tested, and the IC50 [1] was 36 nM.

With `CSCC[C@H](NC(=O)[C@H](CC(C)C)NC(=O)[C@H](Cc1cnc[nH]1)NC(=O)CNC(=O)[C@@H](NC(=O)[C@H](C)NC(=O)[C@H](Cc1c[nH]c2ccccc12)NC(=O)[C@H](CCC(N)=O)NC(=O)[C@H](CC(=O)O)NC(=O)CN1CCN(CCNC(=O)CNC(=O)[C@H](CSCNC(C)=O)NC(=O)[C@H](CO)NC(=O)CN(C)C)CC1)C(C)C)C(N)=O` the IC50 [1] was greater than 50 nM.

`CCCCCNC(=O)[C@H](CC(C)C)NC(=O)[C@H](Cc1cnc[nH]1)NC(=O)CNC(=O)[C@@H](NC(=O)[C@H](C)NC(=O)[C@H](Cc1c[nH]c2ccccc12)NC(=O)[C@H](CCC(N)=O)NC(=O)[C@@H](Cc1ccccc1)NC(=O)c1ccc(NC(=O)CNC(=O)CN2CCN(CC(=O)O)CCN(CC(=O)O)CCN(CC(=O)O)CC2)cc1)C(C)C` was tested, and the IC50 ([1]; pc-3) was 75 nM.

In the case of `CCCC[C@H](NC(=O)[C@H](CC(C)C)NC(=O)[C@H](Cc1c[nH]cn1)NC(=O)CNC(=O)[C@@H](NC(=O)[C@H](C)NC(=O)[C@H](Cc1c[nH]c2ccccc12)NC(=O)[C@H](CCC(N)=O)NC(=O)CCCCCCCNC(=O)CN1CCN(CC(=O)O)CCN(CC(=O)O)CCN(CC(=O)O)CC1)C(C)C)C(N)=O`, the IC50 ([2]; c6) is reported as 14 nM and the IC50 ([1]; pc-3) is reported as 11 nM.

With `CSCC[C@H](NC(=O)[C@H](CC(C)C)NC(=O)[C@H](Cc1cnc[nH]1)NC(=O)CNC(=O)[C@@H](NC(=O)[C@H](C)NC(=O)[C@H](Cc1c[nH]c2ccccc12)NC(=O)[C@H](CCC(N)=O)NC(=O)CNC(=O)[C@H](CC(=O)O)NC(=O)COCCOCCNC(=O)CNC(=O)[C@H](CSCNC(C)=O)NC(=O)[C@H](CO)NC(=O)CN(C)C)C(C)C)C(N)=O` the IC50 [1] was 37 to 43 nM.

Work on `CCCC[C@H](NC(=O)[C@H](Cc1ccccc1)NC(=O)[C@H](Cc1c[nH]cn1)NC(=O)CCNC(=O)[C@@H](NC(=O)[C@H](C)NC(=O)[C@H](Cc1c[nH]c2ccccc12)NC(=O)[C@H](CCC(N)=O)NC(=O)[C@H](Cc1ccccc1)NC(=O)c1ccc(NC(=O)CNC(=O)CN2CCN(CC(=O)O)CCN(CC(=O)O)CCN(CC(=O)O)CC2)cc1)C(C)C)C(N)=O` yielded an IC50 ([1]; pc-3) of 52 nM.

With `CSCC[C@H](NC(=O)[C@H](CC(C)C)NC(=O)[C@H](Cc1cnc[nH]1)NC(=O)CNC(=O)[C@@H](NC(=O)[C@H](C)NC(=O)[C@H](Cc1c[nH]c2ccccc12)NC(=O)[C@H](CCC(N)=O)NC(=O)[C@H](CCCNC(=N)N)NC(=O)CN1CCN(CCNC(=O)CNC(=O)[C@H](CSCNC(C)=O)NC(=O)[C@H](CO)NC(=O)CN(C)C)CC1)C(C)C)C(N)=O` the IC50 [1] was 36 nM.

`CC(C)C[C@H](NC(=O)[C@H](CC(C)C)NC(=O)[C@H](Cc1cnc[nH]1)NC(=O)CNC(=O)[C@@H](NC(=O)[C@H](C)NC(=O)[C@H](Cc1c[nH]c2ccccc12)NC(=O)[C@H](CCC(N)=O)NC(=O)[C@@H](Cc1ccccc1)NC(=O)c1ccc(NC(=O)CNC(=O)CN2CCN(CC(=O)O)CCN(CC(=O)O)CCN(CC(=O)O)CC2)cc1)C(C)C)C(N)=O` was tested, and the IC50 [1] was 340 nM.

In the case of `CSCC[C@H](NC(=O)[C@H](CC(C)C)NC(=O)[C@H](Cc1cnc[nH]1)NC(=O)[C@@H](C)NC(=O)[C@@H](NC(=O)[C@H](C)NC(=O)[C@H](Cc1c[nH]c2ccccc12)NC(=O)[C@H](CCC(N)=O)NC(=O)c1ccc(NC(=O)CNC(=O)CN2CCN(CC(=O)O)CCN(CC(=O)O)CCN(CC(=O)O)CC2)cc1)C(C)C)C(N)=O`, the IC50 ([1]; pc-3) is reported as 13 nM.

In the case of `CSCC[C@H](NC(=O)[C@H](CC(C)C)NC(=O)[C@H](Cc1cnc[nH]1)NC(=O)CNC(=O)[C@@H](NC(=O)[C@H](C)NC(=O)[C@H](Cc1c[nH]c2ccccc12)NC(=O)[C@H](CCC(N)=O)NC(=O)[C@H](CCC(=O)O)NC(=O)COCCOCCNC(=O)CNC(=O)[C@H](CSCNC(C)=O)NC(=O)[C@H](CO)NC(=O)CN(C)C)C(C)C)C(N)=O`, the IC50 [1] is reported as greater than 50 nM.

`CSCC[C@H](NC(=O)[C@H](CC(C)C)NC(=O)[C@H](Cc1cnc[nH]1)NC(=O)CNC(=O)[C@@H](NC(=O)[C@H](C)NC(=O)[C@H](Cc1c[nH]c2ccccc12)NC(=O)[C@H](CCC(N)=O)NC(=O)[C@@H](C)NC(=O)COCCOCCNC(=O)CNC(=O)[C@H](CSCNC(C)=O)NC(=O)[C@H](CO)NC(=O)CN(C)C)C(C)C)C(N)=O` gave an IC50 [1] of 11 nM.

`CSCC[C@H](NC(=O)[C@H](CC(C)C)NC(=O)[C@H](Cc1cnc[nH]1)NC(=O)CNC(=O)[C@@H](NC(=O)[C@H](C)NC(=O)[C@H](Cc1c[nH]c2ccccc12)NC(=O)[C@H](CCC(N)=O)NC(=O)[C@H](CCCNC(=N)N)NC(=O)COCCOCCNC(=O)CNC(=O)[C@H](CSCNC(C)=O)NC(=O)[C@H](CO)NC(=O)CN(C)C)C(C)C)C(N)=O` showed an IC50 [1] of 6 nM.

Molecule `CSCC[C@H](NC(=O)[C@H](CC(C)C)NC(=O)[C@H](Cc1cnc[nH]1)NC(=O)CNC(=O)[C@@H](NC(=O)[C@H](C)NC(=O)[C@H](Cc1c[nH]c2ccccc12)NC(=O)[C@H](CCC(N)=O)NC(=O)CNC(=O)[C@H](CCCNC(=N)N)NC(=O)COCCOCCNC(=O)CNC(=O)[C@H](CSCNC(C)=O)NC(=O)[C@H](CO)NC(=O)CN(C)C)C(C)C)C(N)=O` has an IC50 [1] of 36 to 50 nM.

With `CSCC[C@H](NC(=O)[C@H](CC(C)C)NC(=O)[C@H](Cc1cnc[nH]1)NC(=O)CNC(=O)[C@@H](NC(=O)[C@H](C)NC(=O)[C@H](Cc1c[nH]c2ccccc12)NC(=O)[C@H](CCC(N)=O)NC(=O)[C@H](CC(=O)O)NC(=O)COCCOCCNC(=O)CNC(=O)[C@H](CSCNC(C)=O)NC(=O)[C@H](CO)NC(=O)CN(C)C)C(C)C)C(N)=O` the IC50 [1] was greater than 50 nM.

Work on `CC(C)C[C@H](NC(=O)[C@H](Cc1ccccc1)NC(=O)[C@H](Cc1c[nH]cn1)NC(=O)CNC(=O)[C@@H](NC(=O)[C@H](C)NC(=O)[C@H](Cc1c[nH]c2ccccc12)NC(=O)[C@H](CCC(N)=O)NC(=O)c1ccc(NC(=O)CNC(=O)CN2CCN(CC(=O)O)CCN(CC(=O)O)CCN(CC(=O)O)CC2)cc1)C(C)C)C(N)=O` yielded an IC50 [1] of 2.5 nM.
